In patent US20230203052A1, “ACYCLIC CUCURBITURILS, METHODS OF MAKING SAME, AND USES THEREOF” (University of Maryland, College Park, priority 2020, published 2023):

Legend:
[1] = ITC binding of guests to host 1 (direct or competitive titration); settings: comparison of Table 1 values
[2] = tested on: male Swiss Webster (CFW) mice; test: In vivo reversal of methamphetamine-induced hyperlocomotion; settings: 4.24 mM in D5W, 0.5 mg/kg, 0.022 mL infused; against all other treatments

## methamphetamine
[1]
  Binding of host 1 compared with M1 (in words): less tightly than M1
[2]
  Locomotion counts, methamphetamine only: significant increase in locomotion counts

Only a part of the results on these compounds is given; other tests are left out.
